Measured values from publication PMC5127641 (eLife, 2016).

By UniProt entry, the sequences of proteins in these tests, tags left out. Where a name states a change or a piece, a line headed by the entry shows the natural chain unless it says otherwise. Residues count along the entry.
UniProt P10415: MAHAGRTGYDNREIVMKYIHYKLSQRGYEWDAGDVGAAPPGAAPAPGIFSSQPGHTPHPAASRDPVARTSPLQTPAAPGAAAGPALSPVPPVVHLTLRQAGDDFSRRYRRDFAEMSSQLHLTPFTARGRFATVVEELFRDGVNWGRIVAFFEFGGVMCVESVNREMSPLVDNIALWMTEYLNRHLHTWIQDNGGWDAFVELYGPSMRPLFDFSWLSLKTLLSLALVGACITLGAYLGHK
UniProt Q07817, 1-209: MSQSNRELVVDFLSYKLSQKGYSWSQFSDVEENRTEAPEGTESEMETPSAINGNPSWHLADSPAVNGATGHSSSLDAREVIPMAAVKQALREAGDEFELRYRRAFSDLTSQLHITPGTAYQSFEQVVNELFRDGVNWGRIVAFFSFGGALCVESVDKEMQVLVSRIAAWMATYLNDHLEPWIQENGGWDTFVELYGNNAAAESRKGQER
UniProt Q07820, 172-327: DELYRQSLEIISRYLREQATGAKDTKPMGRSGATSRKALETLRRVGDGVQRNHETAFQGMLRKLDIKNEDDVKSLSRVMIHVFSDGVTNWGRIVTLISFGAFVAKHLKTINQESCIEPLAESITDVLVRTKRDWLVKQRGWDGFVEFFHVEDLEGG

Legend:
Test in all cases: BLI; biotinylated BCL2 homolog (25 nM) immobilised on streptavidin biosensors, designed protein in solution at defined concentrations; Octet RED96; 10 mM HEPES pH 7.4, 150 mM NaCl, 3 mM EDTA, 0.05% surfactant P20, 0.5% non-fat dry milk; titrations in triplicate, 1:1 binding model
Settings in all cases: both partners purified
Bcl-2 = target: T1, Bcl-2 (human, UniProt P10415 1-239, biotin (enzymatic, BirA))
T1 construct: Bcl-2, human pro-survival BCL2 homolog; not shown: avi, C-terminal, kept

Bcl-w = target: T2, Bcl-w (human, UniProt Q92843 1-193, biotin (enzymatic, BirA))
T2 construct: Bcl-w, human pro-survival BCL2 homolog; not shown: avi, C-terminal, kept
T2 sequence (looked up): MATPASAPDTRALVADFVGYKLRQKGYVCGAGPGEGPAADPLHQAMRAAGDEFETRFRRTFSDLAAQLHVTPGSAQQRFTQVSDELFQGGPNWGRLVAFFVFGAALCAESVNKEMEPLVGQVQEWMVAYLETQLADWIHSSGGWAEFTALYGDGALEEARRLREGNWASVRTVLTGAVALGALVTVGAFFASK

Bfl-1 = target: T3, Bfl-1 (human, UniProt Q16548 1-175, biotin (enzymatic, BirA))
T3 construct: Bfl-1, human pro-survival BCL2 homolog; not shown: avi, C-terminal, kept
T3 sequence (looked up): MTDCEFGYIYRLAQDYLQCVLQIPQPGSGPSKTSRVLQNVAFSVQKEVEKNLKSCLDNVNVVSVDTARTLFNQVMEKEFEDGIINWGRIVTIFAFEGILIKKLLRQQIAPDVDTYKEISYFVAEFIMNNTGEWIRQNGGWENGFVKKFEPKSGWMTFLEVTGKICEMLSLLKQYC

Bcl-xL = Bcl-xL (human, UniProt Q07817-1 1-233, biotin (enzymatic, BirA))
Mcl-1 = Mcl-1 (human, UniProt Q07820 1-350, biotin (enzymatic, BirA))

B1: F-ECM04 (designed binder)
chain: ADPKKVLDKAKDQAENRVRELKQKLEELYKEARKLDLTQEMRKKLEVAALGAVLAAHGDILNAIMQAKEEADKLKKAGLVNSQQLDELKRRLEELKEEALRKASDYGKEFHLKRRY
Bcl-2
  koff: 0.01 s⁻¹ and 0.0105 s⁻¹
  kon: 106000 M⁻¹ s⁻¹ (2×) and 96400 M⁻¹ s⁻¹
Bcl-w
  Kd: 3.99 µM and 4.14 µM and 3.19 µM
  koff: 0.0858 s⁻¹ and 0.0865 s⁻¹ and 0.0884 s⁻¹
  kon: 21500 M⁻¹ s⁻¹ and 20900 M⁻¹ s⁻¹ and 27800 M⁻¹ s⁻¹
Bfl-1
  kon: 98700 M⁻¹ s⁻¹ and 112000 M⁻¹ s⁻¹ and 148000 M⁻¹ s⁻¹
Bcl-xL
  koff: 0.0957 s⁻¹ and 0.106 s⁻¹ and 0.111 s⁻¹ and 0.104 s⁻¹
  kon: 190000 M⁻¹ s⁻¹ and 191000 M⁻¹ s⁻¹ and 201000 M⁻¹ s⁻¹
Mcl-1
  koff: 0.0615 s⁻¹ (2×) and 0.0733 s⁻¹

Where “and” joins values, the source holds several entries; their conditions need not be identical. Equal entries are not always repeated.
